Consider one compound from patent publication US9765065B2, “Therapeutic substituted cyclopentanes” (ALLERGAN, INC., priority 2007, dated 2017).

Protein sequences, listed by entry. Tags and fused reporters are not part of them.
UniProt P43116, whole entry: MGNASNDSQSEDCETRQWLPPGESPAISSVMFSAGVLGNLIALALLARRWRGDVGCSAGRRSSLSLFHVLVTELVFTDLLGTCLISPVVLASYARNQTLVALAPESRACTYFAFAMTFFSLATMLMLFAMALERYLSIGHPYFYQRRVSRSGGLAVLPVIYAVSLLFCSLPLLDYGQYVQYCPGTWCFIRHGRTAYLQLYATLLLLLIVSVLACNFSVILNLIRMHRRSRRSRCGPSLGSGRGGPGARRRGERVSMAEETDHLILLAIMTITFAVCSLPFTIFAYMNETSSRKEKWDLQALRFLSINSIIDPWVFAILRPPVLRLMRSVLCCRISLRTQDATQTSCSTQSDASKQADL
UniProt P35408, whole entry: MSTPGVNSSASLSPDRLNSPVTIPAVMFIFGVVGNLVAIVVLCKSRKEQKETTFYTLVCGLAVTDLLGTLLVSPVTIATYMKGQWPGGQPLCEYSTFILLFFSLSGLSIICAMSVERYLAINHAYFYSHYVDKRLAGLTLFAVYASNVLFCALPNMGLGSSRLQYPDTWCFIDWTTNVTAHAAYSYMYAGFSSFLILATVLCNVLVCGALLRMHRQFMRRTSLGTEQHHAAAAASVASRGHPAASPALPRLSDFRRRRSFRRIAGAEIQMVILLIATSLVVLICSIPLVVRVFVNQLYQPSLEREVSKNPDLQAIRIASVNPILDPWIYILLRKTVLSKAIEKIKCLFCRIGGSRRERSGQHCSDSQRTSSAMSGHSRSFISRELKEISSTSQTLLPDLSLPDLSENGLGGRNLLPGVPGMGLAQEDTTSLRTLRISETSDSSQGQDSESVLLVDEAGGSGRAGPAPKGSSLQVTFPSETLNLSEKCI
UniProt P34995, whole entry: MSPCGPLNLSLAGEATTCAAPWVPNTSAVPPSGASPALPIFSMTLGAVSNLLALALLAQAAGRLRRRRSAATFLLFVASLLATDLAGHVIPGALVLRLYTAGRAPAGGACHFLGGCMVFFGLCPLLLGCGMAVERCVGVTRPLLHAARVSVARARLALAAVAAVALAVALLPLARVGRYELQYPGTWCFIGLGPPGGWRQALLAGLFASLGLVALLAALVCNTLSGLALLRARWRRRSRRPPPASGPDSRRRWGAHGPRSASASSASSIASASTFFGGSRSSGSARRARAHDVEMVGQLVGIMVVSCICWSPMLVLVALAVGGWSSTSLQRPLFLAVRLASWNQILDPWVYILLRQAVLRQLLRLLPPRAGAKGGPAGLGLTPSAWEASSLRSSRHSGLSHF
UniProt P43115, whole entry: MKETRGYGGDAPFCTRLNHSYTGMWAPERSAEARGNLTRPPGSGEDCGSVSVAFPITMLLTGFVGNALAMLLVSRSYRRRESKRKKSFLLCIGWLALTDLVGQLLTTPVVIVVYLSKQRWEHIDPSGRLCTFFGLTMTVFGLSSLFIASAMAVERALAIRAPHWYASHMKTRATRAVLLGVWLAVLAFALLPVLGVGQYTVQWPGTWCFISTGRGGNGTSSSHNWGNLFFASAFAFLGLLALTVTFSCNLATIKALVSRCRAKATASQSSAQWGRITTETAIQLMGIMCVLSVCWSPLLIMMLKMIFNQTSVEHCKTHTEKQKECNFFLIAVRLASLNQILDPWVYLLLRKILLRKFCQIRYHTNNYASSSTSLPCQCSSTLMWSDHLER
UniProt Q13258, whole entry: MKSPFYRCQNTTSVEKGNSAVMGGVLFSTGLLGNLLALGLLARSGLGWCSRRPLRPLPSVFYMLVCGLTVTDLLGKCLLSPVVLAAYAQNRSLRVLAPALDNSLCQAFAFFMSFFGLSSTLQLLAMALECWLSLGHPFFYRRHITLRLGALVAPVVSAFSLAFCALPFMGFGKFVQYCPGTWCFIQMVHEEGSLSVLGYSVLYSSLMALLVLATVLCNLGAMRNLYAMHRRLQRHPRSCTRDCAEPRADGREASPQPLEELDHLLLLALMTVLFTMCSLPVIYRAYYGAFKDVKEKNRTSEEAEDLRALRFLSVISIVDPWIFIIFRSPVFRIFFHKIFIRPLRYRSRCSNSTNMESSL

One may read the pEC50 as the negative decadic logarithm of the EC50, by convention in mol/L. The pKi is the Ki on a negative log10 scale, so that one unit is a factor of ten. As usually defined, the EC50 is the concentration that produces a half-maximal response.

Assay [1] concerns the target T1, EP2 (Homo sapiens, UniProt P43116). Kind of assay: EP2 flipr. Conditions: read-out: EP2 data flipr EC50. The text has this: (§1) U.S. patent application Ser. No. 11/553,143, filed on Oct. 26, 2006, incorporated by reference herein in its entirety, describes the methods used to obtain the in vitro data in the table below.
Assay [2] concerns the target T1, EP2. The assay can be described thus: EP2 cAMP. The following applies: read-out: EP2 data cAMP EC50.
Description: as §1

For assay [3], the target named is T1, EP2. The assay can be described thus: EP2 binding Ki. The following applies: read-out: EP2 data Ki.
Description: as §1

The target of assay [4] is T2, EP4 (Homo sapiens, UniProt P35408). Kind of assay: EP4 flipr. Conditions: read-out: EP4 data flipr EC50.
Description: as §1

Assay [5] deals with T2, EP4. The assay can be described thus: EP4 binding Ki. Conditions: read-out: EP4 data Ki.
Description: as §1

The next assay has as its target hEP1 (Homo sapiens, UniProt P34995). Kind of assay: Other receptors hEP1. Conditions: read-out: Other Receptors (EC50 in nM) hEP1.
Description: as §1

The target in a further assay is hEP3A (Homo sapiens, UniProt P43115). Kind of assay: Other receptors hEP3A. The following applies: read-out: Other Receptors (EC50 in nM) hEP3A.
Description: as §1

The target in the next assay is hDP (Homo sapiens, UniProt Q13258). The assay can be described thus: Other receptors hDP. The following applies: read-out: Other Receptors (EC50 in nM) hDP.
Description: as §1

pEC50, pKi: −log10 of the molar value.

`O=C(O)c1ccc(CCC[C@@H]2[C@@H](C#Cc3ccccc3)[C@H](O)C[C@H]2Cl)s1`: the pEC50 at EP2 [1] was 6.66; on EP2 [2] it was 10.52; at EP4 [4], 6.20. Further, the pKi is 9.30 on EP2 [3] and 6.94 on EP4 [5]. Moreover, the EC50 on hEP1 was greater than 10000 nM; at hEP3A, 4030 nM; on hDP, greater than 10000 nM.
